Data from publication PMC6651341, “EDB-FN Targeted Peptide–Drug Conjugates for Use against Prostate Cancer” (International Journal of Molecular Sciences, 2019).

Tests used:
Conditions in all cases: 5 µM, after 72 h, triplicate
[1] = tested on: RWPE-1 normal human prostate epithelial cells; experiment: MTS cell viability assay, RWPE-1; type: cell-based
Source text: (§1) CellTiter 96 was bought from Promega, Madison, WI, USA.

PC3 = experiment: MTS cell viability assay, PC3
LNCaP = experiment: MTS cell viability assay, LNCaP; type: cell-based, human
Source text: as §1

C4-2 = experiment: MTS cell viability assay, C4-2 without TGF-β; type: cell-based, human
Source text: as §1

DU-145 = experiment: MTS cell viability assay, DU-145; type: cell-based, human
Source text: as §1

| Substance | cytotoxicity [1] | cytotoxicity (PC3) | cytotoxicity (LNCaP) | cytotoxicity (C4-2) | cytotoxicity (DU-145) |
| --- | --- | --- | --- | --- | --- |
| hydrazine-glutarate-GG-VCit-C6-[CTVRTSADC] (disulfide) [compound 6] | did not show any significant cytotoxicity | did not show any significant cytotoxicity | did not show any significant cytotoxicity | did not show any significant cytotoxicity | did not show any significant cytotoxicity |
| hydrazine-glutarate-GG-FK-C6-[CTVRTSADC] (disulfide) [compound 5] | did not show any significant cytotoxicity | did not show any significant cytotoxicity | did not show any significant cytotoxicity | did not show any significant cytotoxicity | did not show any significant cytotoxicity |
